# Assay results taken from PubChem BioAssay AID2100 (National Center for Advancing Translational Sciences (NCATS), 2009).
# Only a part is listed here, and it is no random draw. Records with an inconclusive call do not appear. Activity calls are given as the source filed them. The call rests on the fitted dose curve; in most records, active means well fitted inhibition curve with a large enough effect; inconclusive means small, poorly fitted or top-dose-only effect, or another doubt; inactive means no such curve, though single readings can be large or run the other way.
# Target: Lysosomal alpha-glucosidase (Homo sapiens) (UniProt P10253)
# Assay: qHTS Assay for Inhibitors and Activators of Human alpha-Glucosidase Cleavage of Glycogen;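 further: 0% = full enzyme reaction and -100% = no-enzyme basal signal; the screen sought inhibitors and activators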
# Details: recombinant GAA, glycogen substrate, Amplex Red glucose oxidase fluorescence; at 76.4 µM (top of the series)
# Excerpt: NIH Chemical Genomics Center [NCGC] NIH Molecular Libraries Probe Production Centers Network [MLPCN] MLPCN Grant: R03 MH084841-01 Assay Submitter (PI): Wei Zheng NCGC Assay Overview: Alpha-glucosidase is responsible for the hydrolysis of terminal, non-reducing 1,4-linked alpha-D-glucose residues, which releases alpha-D-glucose. It is a lysosomal hydrolase that is required for the degradation of a small percentage (1-3%) of cellular glycogen in humans. Deficiency of this enzyme results in glycogen-storage disease type II (GSDII), also referred to as Pompe disease, an autosomal recessive disorder. Structurally normal glycogen is accumulated in the lysosomes and cytoplasm in affected patients, primarily in muscle tissues. Excessive glycogen storage within lysosomes may interrupt normal functioning of other organelles and leads to cellular injury. In turn, this leads to enlargement and dysfunction of the entire organ involved (eg: cardiomyopathy and muscle weakness). It has been reported that the improper folding and trafficking of alpha-glucosidase resulting from genetic mutations may account for a significant number of Pompe patients. […] We optimized this alpha-glucosidase assay in 1536-well plate format for identification of novel small molecule inhibitors or activators with structures other than the sugar analogs in order to develop new pharmacological chaperones. Previous assays of alpha-Glucosidase have utilized a non-natural fluorescent substrate to probe enzyme activity. The present assay measures enzyme activity on glycogen using a coupled-assay system to glucose oxidase.
# NCGC Assay Protocol Summary: This is an enzyme assay using glycogen from bovine liver (Sigma catalog #: G0885) as the substrate and recombinant human alpha-glucosidase as the enzyme preparation. Upon hydrolysis of the substrate, the glucose product can be detected using the Amplex Red Glucose Oxidase Assay Kit (Invitrogen catalog #: A22189). The product of this reaction can be read with a fluorescence plate reader with an excitation at 573 nm and an emission at 610 nm. Data were normalized to the controls for basal activity (without enzyme) and 100% activity (with enzyme). The AC50 values were determined from concentration-response data modeled with the standard Hill equation. Assay buffer for enzyme reaction: 50 mM citric acid (titrated with potassium phosphate to pH 5.0), 0.01% Tween-20 (pH 5.0 is an optimal condition for this enzyme assay) Assay buffer for Amplex Red reaction: Tris-HCl, pH 7.5 1536-well assay protocol for the alpha-glucosidase assay: (1) Add 2 ul/well alpha-glucosidase enzyme solution (4 nM final) (2) Add 23 nL compounds in DMSO solution. The final titration was 0.7 nM to 77 uM. (3) Add 1 ul of glycogen substrate solution (30 ug) (4) Incubate at 37 C for 40 min (5) Add 2 ul tris-HCl buffer with Amplex Red reagents (6) Incubate 45 min at room temperature. (7) Detect the assay plate in a ViewLux plate reader (PerkinElmer) with Ex=573 nm and Em=610nm. Keywords: Alpha-glucosidase, Pompe Disease, pharmacological chaperone, chaperone therapy, high throughput screening, alpha-glucosidase inhibitor, MLSMR, MLSCN, NIH Roadmap, qHTS and NCGC
row,Compound,"activity change, negative = inhibition"
1,CC(C)(C)c1ccc(OP(C)(=O)Nc2ccc(SC(F)(F)F)cc2)cc1 (stereo not given),inactive: -11.6%
2,Cc1cccc(C)c1OP(C)(N)=O (stereo not given),inactive: 1.69%
3,O=[N+]([O-])c1ccc2c(c1)C=Nc1ccccc1O2,inactive: -27.1%
4,COc1ccccc1OP(C)(=O)Nc1cc(Cl)ccc1C (stereo not given),inactive: -9.58%
5,COc1ccc(OP(C)(=O)Nc2cccc(F)c2)cc1 (stereo not given),inactive: 1.35%
6,Cc1cc(C)cc(OP(C)(N)=O)c1 (stereo not given),inactive: 6.08%
7,CCOC(=O)c1ccc(NP(C)(=O)Oc2ccccc2)cc1 (stereo not given),inactive: -2.32%
8,COc1ccccc1OP(C)(=O)Nc1ccc(C)cc1 (stereo not given),inactive: -3.05%
9,Cc1ccc(NP(C)(=O)Oc2ccccc2)c(C)c1 (stereo not given),inactive: 1.07%
10,CCN(CC)CCCOC(=O)C(O)(c1ccccc1)c1ccccc1,inactive: 4.44%
11,CCc1ccc(OP(C)(=O)N2CCN(c3ccc([N+](=O)[O-])cc3)CC2)cc1 (stereo not given),inactive: -7.16%
12,CP(=O)(NC(=O)Nc1ccccc1)Oc1ccccc1 (stereo not given),inactive: -2.67%
13,Cc1cc(C)cc(OP(C)(=O)Nc2ccc(SC(F)(F)F)cc2)c1 (stereo not given),inactive: -17.9%
14,Cc1cccc(C)c1OP(C)(=O)Nc1ccc(SC(F)(F)F)cc1 (stereo not given),inactive: 5.33%
15,CP(=O)(Nc1ccc(SC(F)(F)F)cc1)Oc1ccc(Cl)cc1 (stereo not given),inactive: -8.08%
16,CP(=O)(Oc1ccccc1)OC(c1ccccc1)C(F)(F)F (stereo not given),inactive: -1.67%
17,CP(=O)(Nc1ccccn1)Oc1ccc(Cl)cc1 (stereo not given),inactive: 2.82%
18,CCOP(C)(=S)SCC(=O)NC(C)C(=O)O (stereo not given),inactive: -14.7%
19,CCOC(=O)c1ccc(NP(C)(=O)Oc2ccc(OC)cc2)cc1 (stereo not given),inactive: 19.8%
20,COc1ccccc1OP(C)(=O)Nc1ccccc1 (stereo not given),inactive: 4.44%
21,CP(=O)(Nc1ccccc1Br)Oc1ccccc1 (stereo not given),inactive: 13.4%
22,CP(=S)(Nn1cnnc1)Oc1ccccc1 (stereo not given),inactive: 3.04%
23,O=[N+]([O-])c1cc([N+](=O)[O-])c(Nc2nnnn2CCO)c([N+](=O)[O-])c1,inactive: 0.593%
24,CP(=O)(Nc1ccc(SC(F)(F)F)cc1)Oc1ccccc1 (stereo not given),inactive: -8.16%
25,CCCOc1ccc(NP(C)(=O)Oc2ccc(Cl)cc2)cc1 (stereo not given),inactive: -3.51%

row,Compound,"activity change, negative = inhibition"
1,COc1ccccc1OP(C)(=O)Nc1c(C)cccc1C (stereo not given),inactive: 1.21%
2,CN1CCCCC1COC(=O)C1(O)c2ccccc2CCc2ccccc21 (stereo not given),inactive: -12.3%
3,O=[N+]([O-])c1cc([N+](=O)[O-])c(-n2nnc3ccccc32)c([N+](=O)[O-])c1,inactive: 3.89%
4,Cc1nc2ccc3ccccc3c2s1.O=[N+]([O-])c1cc([N+](=O)[O-])c(O)c([N+](=O)[O-])c1,inactive: 2.18%
5,Cc1cc(C)cc(OP(C)(=O)Nc2ccc(C)cc2C)c1 (stereo not given),inactive: -1.71%
6,CCOC(=O)c1ccc(NP(C)(=O)Oc2cc(C)cc(C)c2)cc1 (stereo not given),inactive: 14.4%
7,COc1ccccc1OP(C)(=O)Nc1cccc(Br)c1 (stereo not given),inactive: -5.28%
8,CP(=O)(Nc1cccc(Br)c1)Oc1ccccc1 (stereo not given),inactive: -5.47%
9,Cc1cc(C)cc(OP(C)(=O)Nc2ccccn2)c1 (stereo not given),inactive: 12.6%
10,Cc1ccc(C)c(NP(C)(=O)Oc2ccccc2)c1 (stereo not given),inactive: -4.82%
11,CC1=NCCc2c1[nH]c1ccccc21.O=[N+]([O-])c1cc([N+](=O)[O-])c(O)c([N+](=O)[O-])c1,inactive: -4.85%
12,COc1ccc(OP(C)(=O)Nc2ccc(SC(F)(F)F)cc2)cc1 (stereo not given),inactive: 0.264%
13,CCOC(=O)c1ccc(NP(C)(=O)Oc2ccc(F)cc2)cc1 (stereo not given),inactive: 2.06%
14,CP(=O)(Nc1ccccc1)Oc1ccc(F)cc1 (stereo not given),inactive: 3.89%
15,CCN(CC)CCCOC(=O)C(O)(c1ccccc1)C1CCCCC1 (stereo not given),inactive: 6.12%
16,CC(C)c1ccc(OP(C)(=O)Nc2ccc(SC(F)(F)F)cc2)cc1 (stereo not given),inactive: -16.4%
17,CP(=O)(Nc1ccccc1F)Oc1ccccc1 (stereo not given),inactive: 6.06%
18,O=C(OCCN1CCN(CCOCc2ccccc2)CC1)C(O)(c1ccccc1)c1ccccc1,inactive: 4.84%
19,CCOP(C)(=S)SCC(=O)NC(C)(CC)C(=O)O (stereo not given),inactive: 7.26%
20,CP(=O)(Nc1ccc(SC(F)(F)F)cc1)Oc1ccc(F)cc1 (stereo not given),inactive: -4.56%
21,Cc1ccccc1NP(C)(=O)Nc1ccccc1C,inactive: -2.58%
22,CP(=O)(Nc1ccc2c(c1)OCCO2)Oc1ccccc1 (stereo not given),inactive: 1.74%
23,COc1ccc(NP(C)(=O)Oc2ccccc2OC)cc1 (stereo not given),inactive: 6.05%
24,CN(C)CCOC(=O)C(O)(c1ccccc1)C1CCCCC1 (stereo not given),inactive: 5.62%
25,Cc1cc(-c2cccc3ccccc23)c(C)cn1.O=[N+]([O-])c1cc([N+](=O)[O-])c(O)c([N+](=O)[O-])c1,inactive: 3.76%

row,Compound,"activity change, negative = inhibition"
1,O=[N+]([O-])c1ccc(OP2(=O)COCCO2)cc1 (stereo not given),inactive: -10.1%
2,CP(=O)(OC12CC3CC(CC(C3)C1)C2)OC12CC3CC(CC(C3)C1)C2,inactive: -8.52%
3,CCOC(=O)c1ccc(NP(C)(=O)Oc2ccc(Cl)cc2)cc1 (stereo not given),inactive: -6.2%
4,CP(=O)(Oc1ccccc1)N1CCOC1=O (stereo not given),inactive: 8.24%
5,CCc1ccc(OP(C)(=O)Nc2cccnc2)cc1 (stereo not given),inactive: -9.72%
6,O=C(OCCCN1CCCC1)C(O)(c1ccccc1)C1CCCCC1 (stereo not given),inactive: -3.76%
7,CCN(CC)CC(O)COC(=O)C(O)(c1ccccc1)C1CCCCC1 (stereo not given),inactive: -1.72%
8,COc1ccc(OP(C)(=O)Nc2ccc(Br)cc2)cc1 (stereo not given),inactive: -0.954%
9,CN(C)C(=O)c1c([N+](=O)[O-])cc([N+](=O)[O-])cc1[N+](=O)[O-],inactive: 7.43%
10,CP(=O)(Nc1ccc(Cl)cc1)Oc1ccc(F)cc1 (stereo not given),inactive: -8.41%
11,CC(C)(C)c1ccc(OP(C)(=O)O)cc1,inactive: 8.38%
12,COc1ccccc1OP(C)(=O)Nc1ccccc1Br (stereo not given),inactive: -18.1%
13,CN(C)CCOC(=O)C(O)(c1ccccc1)C1CCCC1 (stereo not given),inactive: 6.85%
14,COc1ccc(OP(C)(=O)Nc2ccccn2)cc1 (stereo not given),inactive: 8.24%
15,COc1ccccc1OP(C)(=O)Nc1ccc(Br)cc1 (stereo not given),inactive: 4.43%
16,CCc1ccc(OP(C)(=O)O)cc1,inactive: -6.88%
17,CP(=O)(Nc1ccccn1)Oc1ccccc1 (stereo not given),inactive: 10.9%
18,COc1ccccc1OP(C)(=O)Nc1ccc(C)cc1C (stereo not given),inactive: 1.94%
19,O=[N+]([O-])c1cc([N+](=O)[O-])c(Nc2ccccn2)c([N+](=O)[O-])c1,inactive: -4.98%
20,Cc1c(NP(C)(=O)Oc2ccc(C(C)C)cc2)c(=O)n(-c2ccccc2)n1C (stereo not given),inactive: 2.43%
21,COc1ccc(OP(C)(=O)Nc2ccccc2Br)cc1 (stereo not given),inactive: -4.84%
22,COc1ccccc1OP(C)(=O)Nc1ccc(C)c(C)c1 (stereo not given),inactive: 11.1%
23,Cc1cc(C)cc(OP(C)(=O)Nc2cccc(C(F)(F)F)c2)c1 (stereo not given),inactive: -18.1%
24,CP(=O)(OCCOc1ccccc1)OCCOc1ccccc1,inactive: -4.42%
25,CP(=O)(Nc1ccc(Cl)cc1Cl)Oc1ccccc1 (stereo not given),inactive: 6.82%
